Read-outs that look alike come from different tables or passages of the source.
What was measured:
Experiment in all cases: Inhibition of in vitro proliferation of tumor cells by small molecule compounds (CTG)
[1] = tested on: BT474
Method: (§1) Objective: To assess the inhibitory effects of the drug compounds on tumor cell proliferation, for example, their inhibitory activity against the in vitro proliferation of NCI-H716, NCI-H1975, NCI-H1373, NCI-H647, NCI-H520, BT474, DLD-1, NCI-N87, NUGC-4, SNU-423, MKN-45, SK-OV-3, OVCAR3, Ls174T, HCC1954, and ES2 tumor cells. The cells were treated with the compounds at different concentrations in vitro. After 5 days of culture, the proliferation of the cells was assessed using the CTG (CellTiter-Glo® Luminescent Cell Viability Assay, Promega, Cat. No. G7558) reagent, and the in vitro activity of the compounds was evaluated based on their IC50 values. • 1. Cell suspension preparation: NCI-H716, NCI-H1975, NCI-H1373, NCI-H647, NCI-H520, BT474, DLD-1, NCI-N87, NUGC-4, SNU-423, MKN-45, SK-OV-3, OVCAR3, Ls174T, HCC1954, and ES2 cells in the log phase were collected, washed with PBS once, and then digested with 2-3 mL of trypsin for 2-3 min. After the cells were digested completely, 10-15 mL of a cell culture medium was added to wash off the digested cells. The cells were centrifuged at 1000 rpm for 5 min, and the supernatant was discarded. Subsequently, the cells were resuspended in 10-20 mL of the cell culture medium to prepare single-cell suspensions. • 2. Cell plating: The BT474, DLD-1, NCI-N87, NUGC-4, SNU-423, MKN-45, SK-OV-3, Ls174T, and HCC1954 single-cell suspensions were each mixed well, and their viable cell density was adjusted to 6 × 10^4 cells/mL with the cell culture medium. After the density adjustment, the resulting cell suspensions were each mixed well and added to 96-well cell culture plates at 50 µL/well. The culture plates were incubated overnight in an incubator (37 °C, 5% CO2). • 3. Compound solution preparation: The compounds were dissolved in DMSO to prepare stock solutions with an initial concentration of 10 mM. For the small molecule compounds, a total of 6 concentrations were prepared: 1000 nM, 333 nM, 111 nM, 37.03 nM, 12.34 nM, and 4.11 nM. • 4. Sample addition: The prepared test samples with different concentrations were added to the culture plates, with two replicate wells set for each sample. The culture plates were incubated in an incubator for 5 days (37 °C, 5% CO2). • 5. Color development: The 96-well cell culture plates were taken out, 50 µL of the CTG reagent was added to each well, and the plates were incubated at room temperature for 10 min. • 6. Plate reading: The 96-well cell culture plates were taken out and placed in a microplate reader, and the chemiluminescence was measured using a microplate reader. • 7. Data analysis: The cell survival rates were calculated according to the formula: (Lumtest drug - Lumblank control)/(Lumsolvent blank control - Lumblank control) × 100%. Sigmoid dose-survival rate curves were plotted using a nonlinear regression model in GraphPad Prism software, and the IC50 values were calculated. Table 7-1. IC50 values for the inhibition of the in vitro proliferation of tumor cells by the small molecule compounds of the present application

[2] = tested on: DLD-1
Method: as §1

[3] = tested on: MKN-45; conditions: read-out: Proliferation inhibitory activity IC50 (nM) MKN-45, MKN-45 cells, 5 days of culture
Method: as §1

[4] = tested on: NCI-N87; conditions: read-out: Proliferation inhibitory activity IC50 (nM) NCI-N87, 5 days of culture
Method: as §1

[5] = tested on: HCC1954; conditions: read-out: Proliferation inhibitory activity IC50 (nM) HCC19 54, 5 days of culture
Method: as §1

[6] = read-out: Proliferation inhibitory activity IC50 (nM) BT474, BT474, 5 days of culture
[7] = read-out: Proliferation inhibitory activity IC50 (nM) DLD-1, DLD-1, 5 days of culture
[8] = read-out: Proliferation inhibitory activity IC50 (nM) DLD-1, DLD-1 cells, 5 days of culture
[9] = read-out: Proliferation inhibitory activity IC50 (nM) BT474, BT474 cells, 5 days of culture

CCn1ccc(C(=O)Nc2ccc3c(c2)O[C@@]2(c4ccc(Cl)cc4)[C@H](c4ccccc4)C[C@H](O)[C@@]32O)n1
IC50 [1, 6]: > 50 nM | IC50 [2, 7]: > 50 nM

COc1cc(-c2ncccn2)cc2c1[C@]1(O)[C@H](O)[C@H](C(=O)N(C)OC)[C@@H](c3cccc(N)c3)[C@]1(c1ccc(C#N)cc1)O2 (racemic)
IC50 [3]: 1.91 nM

COc1cc(-c2ncco2)cc2c1C1(O)C(NC(=O)CO)CC(c3ccccc3)C1(c1ccc(C#N)cc1)O2 (racemic)
IC50 [2, 8]: 2.04 nM

COc1cc(-c2ncco2)cc2c1[C@]1(O)[C@H](O)[C@H](C(=O)N(C)OC)[C@@H](c3ccccc3)[C@]1(c1cccc(N)c1)O2 (racemic)
IC50 [1, 9]: 4.65 nM

COc1cc(-c2ncco2)cc2c1[C@]1(O)[C@H](O)[C@H](CN(C)C)[C@@H](c3cccc(N)c3)[C@]1(c1ccc(C#N)cc1)O2 (racemic)
IC50 [1, 9]: 4.44 nM | IC50 [3]: 3.12 nM | IC50 [4]: 2.01 nM

COc1ccc([C@@]23Oc4cc(-c5ncco5)cc(OC)c4[C@]2(O)[C@@H](CN(C)C)C[C@H]3c2cccc(N)c2)cc1 (racemic)
IC50 [2, 8]: 2.49 nM | IC50 [5]: 0.722 nM

COc1ccc([C@@]23Oc4cc(-c5ncco5)cc(OC)c4[C@]2(O)[C@@H](CNC(=O)CN(C)C)C[C@H]3c2cccc(N)c2)cc1 (racemic)
IC50 [2, 8]: 11.8 nM

COc1ccc([C@@]23Oc4cc(-c5ncco5)cc(OC)c4[C@]2(O)[C@H](O)C[C@H]3c2cccc(N)c2)cc1 (racemic)
IC50 [1, 9]: 7.89 nM

COc1ccc([C@@]23Oc4cc(-c5ncco5)cc(OC)c4[C@]2(O)[C@H](O)[C@H](CN(C)C)[C@H]3c2cccc(N)c2)cc1 (racemic)
IC50 [1, 9]: 4.44 nM | IC50 [5]: 1.88 nM

CCN(CC)C[C@H]1C[C@@H](c2cccc(N)c2)[C@]2(c3ccc(OC)cc3)Oc3cc(-c4ncco4)cc(OC)c3[C@]12O (single isomer, unassigned)
IC50 [1, 6]: < 10 nM | IC50 [2, 7]: < 10 nM

COc1cc(-c2ncco2)cc2c1[C@]1(O)[C@H](O)[C@H](C(=O)N(C)OC)[C@@H](c3cccc(N)c3)[C@]1(c1ccc(C#N)cc1)O2 (single isomer, unassigned)
IC50 [1, 6]: 1.29 nM

COc1cc(-c2ncco2)cc2c1[C@]1(O)[C@H](O)[C@H](CN(C)C)[C@@H](c3cccc(N)c3)[C@]1(c1ccc(C#N)cc1)O2 (single isomer, unassigned)
IC50 [1, 6]: 1.16 nM

COc1ccc([C@@]23Oc4cc(-c5ncco5)cc(OC)c4[C@]2(O)[C@@H](CN(C)C)C[C@H]3c2cccc(N)c2)cc1 (single isomer, unassigned)
IC50 [1, 6]: 1.34 nM | IC50 [2, 7]: 1.36 nM

COc1ccc([C@@]23Oc4cc(-c5ncco5)cc(OC)c4[C@]2(O)[C@@H](CNC(=O)CN(C)C)C[C@H]3c2cccc(N)c2)cc1 (single isomer, unassigned)
IC50 [1, 6]: 1.32 nM | IC50 [2, 7]: 3.86 nM

COc1ccc([C@@]23Oc4cc(-c5ncco5)cc(OC)c4[C@]2(O)[C@H](O)C[C@H]3c2cccc(N)c2)cc1 (single isomer, unassigned)
IC50 [1, 6]: 4.85 nM
